Our source for the inhibition values is PubChem BioAssay AID651710 (Broad Institute, 2012).

The chains behind the UniProt entries cited, without tags or fusion partners.
UniProt P43351, whole entry: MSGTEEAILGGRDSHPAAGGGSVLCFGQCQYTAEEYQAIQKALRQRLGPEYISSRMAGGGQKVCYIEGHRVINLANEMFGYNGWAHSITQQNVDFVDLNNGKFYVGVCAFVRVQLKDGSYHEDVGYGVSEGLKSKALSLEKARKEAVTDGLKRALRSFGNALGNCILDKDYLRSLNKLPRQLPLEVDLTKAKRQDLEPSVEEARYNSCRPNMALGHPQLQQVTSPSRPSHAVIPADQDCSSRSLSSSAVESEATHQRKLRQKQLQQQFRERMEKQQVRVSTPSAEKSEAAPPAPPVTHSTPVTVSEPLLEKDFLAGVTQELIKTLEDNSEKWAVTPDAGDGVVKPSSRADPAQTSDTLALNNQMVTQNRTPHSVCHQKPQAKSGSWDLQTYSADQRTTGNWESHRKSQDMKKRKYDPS

The list shows a part of the results, in another mix than the full data. Some results for these compounds are left out of this collection, so the calls shown say nothing about other tests. The source made the active and inactive calls.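 How the source made its calls: active means every replicate showing at least 50% inhibition; inconclusive means mean inhibition at least 50% but not in every replicate; inactive means the rest.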

In the assay the target is DNA repair protein RAD52 homolog (Homo sapiens) (UniProt P43351). Kind of assay: RAD52 DNA annealing inhibitors, primary screen, biochemical, FRET, single point, set 2 (AID 651710). The following applies: recombinant RAD52 DNA annealing, FRET fluorescence; at 18.7 µM; stronger effect = higher value.
In the case of `O=C(OCCN1CCCC1)C(O)(c1ccccc1)c1ccccc1`, the inhibition (commonly the change of the read-out against control, counted positive when it falls) was inactive: -32.7%.
The value for `CC(C)Oc1ccc(C(=O)NCC2(N(C)C)CCCCC2)cc1` was inactive: -11.2%; that for `COc1ccc(Br)c(C(=O)NCC2(N3CCCCC3)CCCCC2)c1` was inactive: -25.3%; that for `C=C(C)C#CC(O)(C(=O)OC1CCN(C)CC1)c1ccccc1` (configuration not stated) was inactive: -3.08%.
With `COc1cc(C(=O)NCC2(N(C)C)CCCCC2)c([N+](=O)[O-])cc1OC`, the inhibition is inactive: -15%.
The value for `CN(C)C1(CNC(=O)c2ccc(Br)cc2)CCCCC1` was inactive: -6.27%; that for `O=C(NCC1(N2CCCCC2)CCCCC1)c1cccc(Cl)c1` was inactive: -25.1%; that for `COc1ccc(Cl)cc1C(=O)NCC1(N(C)C)CCCCC1` was inactive: 4.43%.
The value for `COc1cccc(C(=O)NCC2(N3CCCCC3)CCCCC2)c1` was inactive: -23.8%; that for `CN(C)c1ccc(C(=O)NCC2(N(C)C)CCCCC2)cc1` was inactive: -1.06%.
For the compound `CN(C)C1CCCC1OC(=O)C(O)(c1ccccc1)c1ccccc1` (configuration not stated), the inhibition was inactive: 3.47%.
On to `Cc1ccccc1C(=O)NCC1(N2CCCCC2)CCCCC1`, for which the inhibition is inactive: -0.678%.
The value for `O=C(NCC1(N2CCCCC2)CCCCC1)c1cccc(Br)c1` was inactive: -15.2%; that for `Cc1cc(C(=O)NCC2(N3CCCCC3)CCCCC2)ccc1[N+](=O)[O-]` was inactive: 5.43%; that for `COc1ccc(C(=O)NCC2(N(C)C)CCCCC2)cc1` was inactive: -14.7%.
The value for `O=C(NCC1(N2CCCCC2)CCCCC1)c1cc(F)c(F)cc1Cl` was inactive: -29.6%; that for `C=CCN1CCN(CCOC(=O)C(O)(c2ccccc2)c2ccccc2)CC1` was inactive: -8.38%; that for `CN1[C@@H]2CC[C@H]1CC(OC(=O)C(O)(c1ccccc1)c1ccccc1)C2` (some centres not stated) was inactive: -10.6%.
With `O=C(NCC1(N2CCCCC2)CCCCC1)c1cc([N+](=O)[O-])ccc1Cl` the figure was inactive: -7.83%; with `Cc1ccc(C(=O)NCC2(N3CCCCC3)CCCCC2)cc1`, inactive: -13.5%; with `COc1cc(SC)ccc1C(=O)NCC1(N(C)C)CCCCC1`, inactive: -13.4%.
Consider `CCN(CC)CC(C)C(C)OC(=O)C(O)(c1ccccc1)c1ccccc1` (configuration not stated), for which the inhibition is inactive: -16.8%.
